Results reported in patent US20070105777A1.

The chains behind the UniProt entries cited, without tags or fusion partners. Where a name states a change or a piece, a line headed by the entry shows the natural chain unless it says otherwise.
UniProt Q08351: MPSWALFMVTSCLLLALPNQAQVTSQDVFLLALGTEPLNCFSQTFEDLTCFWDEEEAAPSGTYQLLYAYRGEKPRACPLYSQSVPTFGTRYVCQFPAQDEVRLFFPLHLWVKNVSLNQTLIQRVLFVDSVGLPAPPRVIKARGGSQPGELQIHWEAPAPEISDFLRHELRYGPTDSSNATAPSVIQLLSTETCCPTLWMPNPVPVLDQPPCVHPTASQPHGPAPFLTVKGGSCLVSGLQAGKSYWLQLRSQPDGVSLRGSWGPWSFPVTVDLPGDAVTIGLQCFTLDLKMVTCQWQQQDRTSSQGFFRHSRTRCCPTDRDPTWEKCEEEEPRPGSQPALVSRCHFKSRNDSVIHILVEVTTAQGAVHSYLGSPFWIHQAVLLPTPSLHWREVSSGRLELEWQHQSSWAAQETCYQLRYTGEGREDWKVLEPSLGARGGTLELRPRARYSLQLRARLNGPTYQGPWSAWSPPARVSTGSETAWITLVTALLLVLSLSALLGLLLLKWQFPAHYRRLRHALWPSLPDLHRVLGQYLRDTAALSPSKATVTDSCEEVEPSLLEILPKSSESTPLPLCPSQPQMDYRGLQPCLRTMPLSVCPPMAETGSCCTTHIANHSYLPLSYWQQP

Biological target: MPL-zcytor17 polypeptide chimera: MPL extracellular and TM domain fused to the zcytor17 intracellular signaling domain (murine; human) (UniProt Q08351)
Test: cell-based or functional assay

- proliferation of BaF3/MPL-zcytor17 cells (Alamar Blue), fold over background (fold over background): 9 to 13
Substance: murine thrombopoietin (from UniProt P40226 22-356) (ligand)
